Results as given in patent publication US20040146519A1 (published 2004).
Like-named read-outs stand apart in the source and are kept apart here.

Key:
HLA-A*0202 = biological target: T1, HLA-A*0202 (human); experiment: competition with 125I probe peptide for purified HLA
T1 construct: purified HLA molecule

HLA-A*6801 = biological target: T2, HLA-A*6801 (human); experiment: as above
T2 construct: purified HLA molecule

HLA-A*0301 = biological target: T3, HLA-A*0301 (human); experiment: as above
T3 construct: purified HLA molecule

HLA-A*1101 = biological target: T4, HLA-A*1101 (human); experiment: as above
T4 construct: purified HLA molecule

HLA-B*5401 = HLA-B*5401 (human); experiment: inhibition of 125I probe peptide, purified HLA
HLA-B*0702 = HLA-B*0702 (human); experiment: inhibition of 125I probe peptide, purified HLA
HLA-B*5301 = HLA-B*5301 (human); experiment: inhibition of 125I probe peptide, purified HLA
HLA-A*0101 [1] = biological target: T5, HLA-A*0101 (human); experiment: inhibition of 125I probe peptide, purified HLA
T5 construct: also called HLA-A1

HLA-A*0101 [2] = biological target: T5, HLA-A*0101; experiment: inhibition of 125I probe peptide, purified HLA; remark: listed apart in the source
HLA-A*2402 = HLA-A*2402 (human); experiment: inhibition of 125I probe peptide, purified HLA
HLA-DRB1*0701 = biological target: T6, HLA-DRB1*0701 (human); experiment: inhibition of 125I probe peptide, purified HLA
T6 construct: also called DR7

YLCGIQNSV (analog of CEA.569) [CEA.569L2]
IC50 (HLA-A*0202): 24 nM

ALVGIMIGV (analog of CEA.687) [CEA.687L2]
IC50 (HLA-A*0202): 63 nM

TVSPSYTYYR (analog of CEA.419) [CEA.419.V2]
IC50 (HLA-A*6801): 8.6 nM

TVSPSYTYYK (analog of CEA.419) [CEA.419.V2K10]
IC50 (HLA-A*0301): 69 nM

FVSNLATGK (analog of CEA.656) [CEA.656.K9]
IC50 (HLA-A*1101): 207 nM

FPPHRWCIPI (CEA analog peptide) [CEA.6.F1I10]
IC50 (HLA-B*5401): 222 nM | IC50 (HLA-B*0702): 98 nM

FPQHLFGYSI (CEA analog peptide) [CEA.58.F1I10]
IC50 (HLA-B*5301): 143 nM

FPQQHTQI (CEA analog peptide) [CEA.632.F1, 8 AA]
IC50 (HLA-B*5401): 185 nM

FPQQHTQVLF (CEA analog peptide) [CEA.632.F1, 10 AA]
IC50 (HLA-B*5301): 47 nM

PTDSPLNTSY (CEA analog peptide; also called 57.0103) [CEA.240.D3]
IC50 (HLA-A*0101 [1]): 266 nM | IC50 (HLA-A*0101 [2]): 266 nM

PTDSPSYTYY (CEA analog peptide; also called 57.0104) [CEA.418.D3, 10 AA]
IC50 (HLA-A*0101 [1]): 1.1 nM | IC50 (HLA-A*0101 [2]): 1.1 nM

TIDPSYTYY (CEA analog peptide; also called 57.0012) [CEA.419.D3]
IC50 (HLA-A*0101 [1]): 3.1 nM | IC50 (HLA-A*0101 [2]): 3.1 nM

QQDTPGPAY (CEA analog peptide; also called 57.0004) [CEA.87.D3]
IC50 (HLA-A*0101 [1]): 56.8 nM

VTDNDVGPY (CEA analog peptide; also called 57.001) [CEA.383.D3]
IC50 (HLA-A*0101 [1]): 4.1 nM

PTDSPSYTY (CEA analog peptide; also called 57.0011) [CEA.418.D3, 9 AA]
IC50 (HLA-A*0101 [1]): 37.9 nM

RYCIPWQRF (CEA analog peptide) [CEA.10.Y2F9]
IC50 (HLA-A*2402): 191 nM

IYPNASLLF (CEA analog peptide) [CEA.101.F9]
IC50 (HLA-A*2402): 2.2 nM

LYWVNNQSF (CEA analog peptide) [CEA.177Y2F9]
IC50 (HLA-A*2402): 63 nM

LYGPDAPTF (CEA analog peptide) [CEA.234.F9]
IC50 (HLA-A*2402): 63 nM

VYAEPPKPFF (CEA analog peptide) [CEA.318.F10]
IC50 (HLA-A*2402): 27 nM

QYSWRINGF (CEA analog peptide) [CEA.624.F9]
IC50 (HLA-A*2402): 109 nM

TYACFVSNF (CEA analog peptide) [CEA.652.F9]
IC50 (HLA-A*2402): 8.6 nM

DTGLNRTTVTTITVY [CEA.305]
IC50 (HLA-DRB1*0701): 2840 nM
